System: HSV-1/L2(TK+)
Conditions: Strain HSV-1/L2(TK+)
Protocol: Herpes simplex virus type 1 (HSV-1) strain L2 was obtained from the State’s collection of viruses at FSBI «N. F. Gamaleya National Research Centre for Epidemiology and Microbiology, Russian Ministry of Health, Russia» («D. I. Ivanovsky Institute of Virology» subdivision).
Antiviral activity in vitro was measured by the method of the cytopathic effect (CPE) inhibition assay. In 96-well plastic plates with the 24 h generated cell monolayer, 2-fold serial dilutions of the compounds were prepared. Cells infected with MOI of 0.1 PFU/cell were incubated at 37 °C in 5% CO2 atmosphere. […] Antiviral activity was assessed by determining of IC50 and IC95.
Three controls were used: (1) Toxicity control. Uninfected cells were incubated in the presence of the drug in the same concentration range as in the experiment. (2) Virus control. […] (3) Cell control. Uninfected cell cultures were incubated in the maintenance medium, which contained no drug.

Substance: 5-Phenyl-1,2,4-triazole-3-thione [Compound 4]
- SI (ratio of CC50 to IC50): >2

— article PMC11274511, “Synthesis of Substituted 1,2,4-Triazole-3-Thione Nucleosides Using E. coli Purine Nucleoside Phosphorylase” (Biomolecules, 2024)
